Source: PubChem BioAssay (National Center for Advancing Translational Sciences (NCATS))
DT40 TDP1 no CPT – qHTS for Inhibitors of human tyrosyl-DNA phosphodiesterase 1 (TDP1): qHTS in cells in absence of CPT | DT40 Tdp1-/- hTDP1 cells, no CPT, ATP luminescence, 48 h | Potency, µM (highest dose often 46.2 µM), for the others: at the top dose activity change, negative = growth inhibition, hits mostly inhibitors | 15% of 420,000 active | AID 686978, 2013; note: potency is the fitted concentration of half-maximal effect; % is set by controls: 0 for no effect and ±100 for the full control effect; nearly all actives have a fitted effect of over 55% in size
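Compound effects on proliferation are scored in DT40 Tdp1-/-;hTDP1 cells in the absence of CPT. ATP levels (CellTiter-Glo luminescence) are recorded after a ≥48 hr, 37 °C incubation.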
miR-21 reporter – raises the signal of a miR-21 reporter | AID 2288 | 340,000 tested, under 10 active | Potency, µM (series often up to 38.3 µM), without a hit: at the highest dose reporter change, positive = more light | HeLa miR-21 FLuc reporter, luciferase, 48 h; active = well fitted rising curve with a large enough effect; inconclusive = small, poorly fitted or top-dose-only effect; inactive = no such curve, though single readings can be large or run the other way;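 further: % of control where 0% means no effect; miR-21 action dims this reporter so a rising signal means less miR-21 action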
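HeLa cells stably expressing CMV-driven firefly luciferase with a downstream miR-21 binding sequence, endogenously expressing miR-21, were treated with titrations (up to about 40uM final) for 48 hours at 37 degree Celsius. Luciferase luminescence was read after lysis.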
TDP1 inh – blocks human tyrosyl-DNA phosphodiesterase 1; Q9NUW8; recombinant TDP1, AlphaScreen DNA substrate cleavage; Potency, µM (highest dose often 130 µM), for the others: top-dose activity change, negative = inhibition, most hits filed as inhibitors; 0.28% of 350,000 active; note: potency is the fitted concentration of half-maximal effect; % is set by controls: 0 for no effect and ±100 for the full control effect; nearly all actives have a fitted effect of over 40% in size
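Steps: enzyme plus compound, 15 min RT; add biotin/phosphotyrosine-FITC oligonucleotide (15 nM final), react 5 min; add donor/acceptor beads (10 ug/ml final), 10 min; read AlphaScreen. Tdp1 at 1 nM final.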
uPA surface inh – blocks generation of uPA at the cell surface; cell surface uPA generation assay, qHTS; Potency, µM (doses to about 38.3 µM), for the others: at the highest dose activity change, negative = inhibition, actives largely listed as inhibitors; 0.31% of 330,000 active; active = well fitted inhibition curve with a large enough effect; inconclusive = small, poorly fitted or top-dose-only effect; inactive = no such curve, though single readings can be large or run the other way; tested in mouse RAW 264.7 cells; note: potency is the fitted concentration of half-maximal effect; % is set by controls: 0 for no effect and ±100 for the full control effect; nearly all actives have a fitted effect of over 55% in size
DT40 TDP1 CPT – DT40-hTDP1 cell growth loss with CPT; chicken DT40 Tdp1-/-;hTDP1 cells + 20 nM CPT, ATP luminescence, 48 h; Potency, µM (series often up to 46.2 µM), for the others: at the top dose activity change, negative = growth inhibition, hits mostly inhibitors; 12% of 420,000 active; AID 686979; note: potency is the fitted concentration of half-maximal effect; % is set by controls: 0 for no effect and ±100 for the full control effect; nearly all actives have a fitted effect of over 55% in size
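Cell growth measured by CellTiter-Glo luminescence after a minimum 48 h, 37 C compound exposure with 20 nM CPT in Tdp1-knockout DT40 cells stably expressing hTDP1, seeded 400/well; qHTS titration format.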
An asterisk follows results filed as active; ? = inconclusive; nt = no result; [ ] = another dose, or the depositor's remark. Only some compounds are listed: those with a hit (about 16% of all), similar ones and a draw of the others. Unless noted, calls come from the whole dose curve; as a rule, active = well fitted curve in the direction sought with a large enough effect; inconclusive = small, poorly fitted or top-dose-only effect, or another doubt; inactive = no such curve, though single readings can be large; an effect the other way counts as inactive or inconclusive.

No. | SMILES | TDP1 inh | miR-21 reporter | uPA surface inh
1 | Cn1c(=O)n(C)c2cc([N+](=O)[O-])c(N3CCNCC3)cc21 | 3% | -4% | 3%
2 | CCN(CC)c1ccc(/C=N/c2sc3c(c2C#N)C2CCN3CC2)c(O)c1 | 2% | -12% | -6%
3 | Cc1ncc(CO)c2c1Oc1nc(-c3ccccc3Cl)nc(SCc3ccccc3F)c1C2 | 0% | -2% | nt
4 | COc1cccc(CSc2nc(-c3ccccc3OC)nc3c2Cc2c(CO)cnc(C)c2O3)c1 | 5% | 0% | nt
5 | CC(C)CN1CCCC2(CCN(C(=O)c3ccncc3)CC2)C1 | nt | nt | nt
6 | CCN(CC)c1ccc(CN(C)CCc2ccc(OC)c(OC)c2)cc1 | 1% | -12% | nt
7 | NC1=N[C@H](O)[C@H]2C3O[C@]4(O)O[C@H](C(O)[C@@]2(N1)[C@@H]4O)C3(O)CO (stereo partly specified) | 17% | nt | nt
8 | CCOC(=O)c1cc2ccccc2n1C1CCN(Cc2ccccc2)CC1 | nt | nt | nt
9 | COc1ccc(C(=O)C2CCCN(C3CSCCSC3)C2)c(OC)c1 (stereo unspecified) | 4% | 4% | -1%
10 | CCn1ccnc1CN1CCCC(C(=O)c2ccc(OC)cc2OC)C1 (stereo unspecified) | 1% | 5% | -5%

No. | DT40 TDP1 CPT | DT40 TDP1 no CPT
1 | -13% | 3%
2 | 18µM* | 23µM*
3 | 15µM* | 15µM*
4 | 5.8µM* | 3.7µM*
5 | 2% | 1%
6 | 23µM* | ?
7 | nt | nt
8 | ? | 16µM*
9 | ? | 23µM*
10 | ? | ?

Next section.
No. | SMILES | TDP1 inh | miR-21 reporter | uPA surface inh
11 | COc1ccc(C(=O)C2CCCN(Cc3ccc(C)s3)C2)c(OC)c1 (stereo unspecified) | 0% | 3% | -2%
12 | COc1ccc(C(=O)C2CCCN(CCO)C2)c(C)c1 (stereo unspecified) | 1% | 2% | 0%
13 | COc1ccc(C(=O)C2CCCN(Cc3cccc(C)n3)C2)c(OC)c1 (stereo unspecified) | 6% | 11% | -1%
14 | COc1ccc(C(=O)C2CCCN(C3CSCCSC3)C2)c(C)c1 (stereo unspecified) | 2% | 1% | 4%
15 | COc1ccc(C(=O)N/N=C\c2coc3ccc(C)cc3c2=O)cc1 | ? | 12% | 7%
16 | C[C@H]1C2Cc3ccc(O)cc3[C@]1(C)CCN2CC1CC1 | 10%[56.1 µM] | nt | nt
17 | CC[C@]12c3[nH]c4cc(-c5ccco5)ccc4c3CCN1C(=O)[C@@H](CC(=O)NC/C=C(\C)CCC=C(C)C)C[C@@H]2C(=O)N1CCN(C(=O)c2ccco2)CC1 | 4%[56.1 µM] | nt | ?
18 | COc1cc(OC)c(OC)cc1C=O | 0% | nt | 9%
19 | COc1cc2c(cc1/C=C/[N+](=O)[O-])OCO2 | 5% | ? | -21%
20 | Cc1nc(-c2cccc(NC(=O)c3ccc(Cl)c(S(=O)(=O)N4CCCC4)c3)c2)cs1 | nt | nt | nt

No. | DT40 TDP1 CPT | DT40 TDP1 no CPT
11 | ? | 21µM*
12 | -14% | ?
13 | ? | 21µM*
14 | ? | ?
15 | -36% | -20%
16 | nt | nt
17 | ? | 21µM*
18 | 7% | ?
19 | 5.8µM* | 2.3µM*
20 | ? | 8.2µM*

(continued)
No. | SMILES | TDP1 inh | miR-21 reporter | uPA surface inh
21 | O=[N+]([O-])c1ccc(Cl)c(S(=O)(=O)Nc2cccc(-c3ccc(N4CCCC4)nn3)c2)c1 | 1% | nt | ?
22 | CCN1C[C@]2(COC)CC[C@H](OC)[C@@]34C5C[C@H]6C(=O)C5[C@](O)(C[C@H]6OC)[C@@](O)(C(OC)C23)[C@@H]14 (stereo partly specified) | nt | nt | 4%
23 | Cc1oc(-c2cccc(Cl)c2)nc1CN1CCC(C(=O)NCCCN2CCN(c3cccc(Cl)c3)CC2)CC1 | 6% | 1% | nt
24 | Cc1oc(-c2ccccc2)nc1CN1C(=O)CN=C(c2ccccc2)c2ccccc21 | 5% | 5% | -28%
25 | Cc1ccc(-c2nc(CN3C(=O)CN=C(c4ccccc4Cl)c4cc(Cl)ccc43)c(C)o2)cc1 | 6% | 13% | nt
26 | CC(C)(C)c1ccc(O)c(N=Cc2c(O)ccc3ccccc23)c1 | nt | 0% | -5%
27 | O=S(=O)(Nc1c(O)ccc2ccccc12)c1ccc(F)cc1 | nt | nt | 2%
28 | CCOc1ccc(CCNC(=O)c2cnc3sc(N4CCCC4)nn3c2=O)cc1 | 3% | 5% | nt
29 | CCOc1ccc2nc(NC(=O)c3cccn(Cc4ccc(Cl)cc4)c3=O)sc2c1 | 4% | -6% | nt
30 | CC(C)c1ccc(NC(=O)N2C[C@H]3C[C@@H](C2)c2cccc(=O)n2C3)cc1 | nt | -1% | 2%

No. | DT40 TDP1 CPT | DT40 TDP1 no CPT
21 | 4% | -19%
22 | 6% | -4%
23 | 15µM* | 18µM*
24 | 18µM* | ?
25 | 16µM* | 15µM*
26 | 26µM* | 16µM*
27 | ? | ?
28 | 6.5µM* | 2.3µM*
29 | 0% | 0%
30 | -20% | 5%

(further entries)
No. | SMILES | TDP1 inh | miR-21 reporter | uPA surface inh
31 | CCOC(=O)CC(NC(=O)C(Cc1ccc(N(CCCl)CCCl)cc1)NC(C)=O)C(=O)OCC (stereo unspecified) | -14% | 15% | -9%
32 | CCCC(C)(COC(N)=O)COC(N)=O | 4% | nt | nt
33 | COC(=O)C1=C(c2cccc(C#N)c2)C[C@@H]2CC[C@H]1N2C(=O)NC1CCCCC1 | -2% | nt | 19%
34 | CCOC(=O)[C@]12Cc3cc(C)ccc3[C@H]1N(CCC(=O)OC)C(=O)c1ccccc12 | nt | nt | nt
35 | CCOC(=O)[C@]12Cc3cc(Cl)ccc3[C@H]1N(C1CCCCC1)C(=O)c1cc(OC)ccc12 | nt | nt | nt
36 | CCOC(=O)[C@]12Cc3ccc(C)cc3[C@H]1N(C1CCCCC1)C(=O)c1ccccc12 | nt | nt | nt
37 | CCOC(=O)[C@]12Cc3c(cc(OC)c(OC)c3OC)[C@H]1N(C1CCCCC1)C(=O)c1ccccc12 | nt | nt | nt
38 | O=C1CC(c2ccccc2Br)c2c(c3ccccc3oc2=O)O1 (stereo unspecified) | 2% | 1% | nt
39 | CN1[C@H]2CC(=O)C[C@@H]1[C@@H](O)C2 | 6%[21 µM] | nt | nt
40 | CS(=N)(=O)CC[C@H](N)C(=O)O (stereo partly specified) | 5% | nt | nt

No. | DT40 TDP1 CPT | DT40 TDP1 no CPT
31 | 1.5µM* | 0.52µM*
32 | -12% | -8%
33 | ? | ?
34 | 23µM* | 16µM*
35 | 0.52µM* | 0.52µM*
36 | 2.6µM* | 2.3µM*
37 | 2.9µM* | 3.7µM*
38 | 14% | -3%
39 | nt | nt
40 | nt | nt

Part of the list above, set out differently.
31) CCOC(=O)CC(NC(=O)C(Cc1ccc(N(CCCl)CCCl)cc1)NC(C)=O)C(=O)OCC (stereo unspecified)
32) CCCC(C)(COC(N)=O)COC(N)=O
33) COC(=O)C1=C(c2cccc(C#N)c2)C[C@@H]2CC[C@H]1N2C(=O)NC1CCCCC1

| Assay by compound | 31 | 32 | 33 |
| --- | --- | --- | --- |
| TDP1 inh | -14% | 4% | -2% |
| miR-21 reporter | 15% | nt | nt |
| uPA surface inh | -9% | nt | 19% |
| DT40 TDP1 CPT | 1.5µM* | -12% | ? |
| DT40 TDP1 no CPT | 0.52µM* | -8% | ? |

Other records.
No. | SMILES | TDP1 inh | miR-21 reporter | uPA surface inh
41 | CCOC(=O)[C@]12Cc3ccccc3[C@H]1N(C(C)C)C(=O)c1ccccc12 | nt | nt | nt
42 | CCOC(=O)[C@]12Cc3ccc(C)cc3[C@H]1N(C1CCCCC1)C(=O)c1cc(OC)ccc12 | nt | nt | nt
43 | CCOC(=O)C12C(=O)OCC1C2c1ccccc1 (stereo unspecified) | nt | nt | nt
44 | CCOC(=O)[C@]12Cc3cc(C)ccc3[C@H]1N(C1CCCCC1)C(=O)c1ccccc12 | nt | nt | nt
45 | CN(C)C(=O)Oc1cccc(NC(=O)N2CCOCC2)c1 | -1% | -9% | 3%
46 | COc1cccc(NC(=O)N2CCc3nc(Nc4ccc(C(C)C)cc4)ncc3C2)c1 | nt | nt | nt

No. | DT40 TDP1 CPT | DT40 TDP1 no CPT
41 | ? | 23µM*
42 | 2.9µM* | 2.9µM*
43 | 7% | -14%
44 | 2.3µM* | 2.9µM*
45 | -19% | -3%
46 | 26µM* | ?

As entered above.
Value for CCOC(=O)[C@]12Cc3cc(C)ccc3[C@H]1N(C1CCCCC1)C(=O)c1ccccc12 in DT40 TDP1 no CPT: 2.9µM*
Value for CCOC(=O)[C@]12Cc3ccccc3[C@H]1N(C(C)C)C(=O)c1ccccc12 in DT40 TDP1 no CPT: 23µM*
Value for CCOC(=O)[C@]12Cc3ccc(C)cc3[C@H]1N(C1CCCCC1)C(=O)c1cc(OC)ccc12 in DT40 TDP1 no CPT: 2.9µM*
